For 1 compound, Activity results are on record in ChEMBL document CHEMBL3779891, “Protective effects of kaempferol against reactive oxygen species-induced hemolysis and its antiproliferative activity on human cancer cells” (Eur J Med Chem, 2016).

The data set deals with Hepatocyte. As to the kind of experiment: Cytotoxicity against hepatocytes (unknown origin) assessed as reduction in cell survival at 25 to 100 ug/ml after 48 hrs by MTT assay. The format is ADME, cell-based. In general terms: Tetrazolium dyes change colour on reduction, which living cells bring about.

Regarding `O=c1c(O)c(-c2ccc(O)cc2)oc2cc(O)cc(O)c12` [KAEMPFEROL], the Activity result is recorded as “Toxic”.
